In US20130261173A1, “CYCLODEXTRIN-BASED POLYMERS FOR THERAPEUTIC DELIVERY” (CERULEAN PHARMA INC., priority 2009, published 2013):

Test system: B16.F10 cells
Experiment: Efficacy in a murine melanoma model (subcutaneous B16.F10 tumors)
Format: in vivo, male C57BL/6 mice
Details: 30 mg/kg IV, weekly schedule for 3 injections (study of 1.4, 2.3, 4.2, 5.2)
Experimental: Tumor volume was calculated with a (width×width×length)/2 mm^3 formula.

**Q.** For CC(=O)O[C@@]12CO[C@@H]1C[C@H](O)[C@@]1(C)C(=O)[C@H](O)C3=C(C)[C@@H](OC(=O)[C@H](O)[C@@H](NC(=O)OC(C)(C)C)c4ccccc4)C[C@@](O)([C@@H](OC(=O)c4ccccc4)[C@H]21)C3(C)C [Free docetaxel, docetaxel, reference compound], which “Tumor growth inhibition (% TGI)” value is on record?
**A.** Its value is 84%.

**Q.** What about the “Tumor growth inhibition (% TGI)” value (listed as free docetaxel) of the same compound?
**A.** The value was 84%.
